Assay outcomes (PubChem BioAssay)
Most compounds without a hit are left out; they make up all but 1.9% or so of the library.
FGF22 binding = binders of human FGF22 protein, primary screen, FGF22 synaptogenesis inhibitor project, biophysical, thermal shift, single point. AID 651658, 2012. 340,000 compounds, 1.5% hits. activity (Tm shift, normalised), % at 9.99 µM. recombinant FGF22 thermal shift, SYPRO orange fluorescence; percent of sucrose octasulfate shift, DMSO zero. Fibroblast growth factor 22 (Homo sapiens), Q9HCT0;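 active = mean Tm shift, scaled 0 neutral to 100 positive control, at about 1.3% or above, every replicate too, limit read from the data; inconclusive = no clear call, values can overlap the other calls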
PDI inh = inhibitors of human PDI, primary screen, biochemical, turbidity, single point, plate reader | Protein disulfide-isomerase (Homo sapiens), P07237 | PDI insulin aggregation turbidity, A650, 90 min | inhibition, % at 10 µM | 350,000 compounds, 0.052% hits;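 active = mean inhibition across replicates of 30% or more, whatever share of single replicates reach that level; inconclusive = mean inhibition below 30% while every single replicate reaches 30%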
ERp5 inh = inhibitors of ERp5-driven insulin aggregation, primary screen, biochemical, turbidity, absorbance 650 nm, single point; AID 651711, 2012; inhibition, % at 9.99 µM; Protein disulfide-isomerase A6 (Homo sapiens), Q15084; 350,000 compounds, 0.05% hits; 90 min;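 active = mean replicate inhibition above about 25%, with every replicate also reaching it, limit read from the data, passing the limit was not always enough; inconclusive = only one of those two criteria met; inactive = neither criterion met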
PglD DTNB = C. jejuni PglD acetyltransferase inhibitors, primary screen, biochemical, DTNB colorimetric, single point; UDP-N-acetylbacillosamine N-acetyltransferase PglD (Campylobacter jejuni); purified PglD enzyme, DTNB colorimetric CoA detection; inhibition, % at 12.5 µM; 360,000 compounds, 0.098% hits; in the data active = inhibition above about 16%, passing the limit was not always enough; inconclusive = no clear call, values can overlap the other calls
Yeast UUG start = alters start codon recognition fidelity in yeast | S. cerevisiae UUG-firefly luciferase reporter, luminescence/redox ratio | activity score, % at 18.7 µM | hit rate 0.13% among 350,000 | AID 602363;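 active means replicate mean at a twofold rise or more, about +100% in these data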;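 further: firefly luciferase made from a UUG start codon reports start codon fidelity; reporter light over untreated wells divided by growth signal over untreated wells; some hits fall short of that in this replicate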
ARNT-TACC3 inh = disruptors of ARNT/TACC3 protein interaction, primary screen, biochemical, AlphaScreen, single concentration; inhibition, % at 9.99 µM; AID 623870, 2012; 390,000 compounds, 0.66% hits; AlphaScreen His-ARNT PAS-B/GST-TACC3 binding, luminescence; TACC3 fragment carries E629A point mutation;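 active = mean inhibition of replicates at least 50% and at least half of replicates each reaching 50%; inconclusive = half or more replicates reach 50% but mean below 50%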;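 also: 0% = complete ARNT plus TACC3 wells and 100% = ARNT alone without TACC3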
* = called active by the depositor; ? = inconclusive; . = no result given.

SMILES	FGF22 binding	PDI inh	ERp5 inh	PglD DTNB	Yeast UUG start	ARNT-TACC3 inh
C[C@H](CO)N1C[C@H](C)[C@H](CN(C)C(=O)C2CCC2)Oc2ncc(-c3ccc(F)cc3)cc2C1=O	0	.	-1	2	15	-8
COc1ccc2c(c1OC)C(=O)O[C@@H]2[C@H]1c2c(cc3c(c2OC)OCO3)CCN1C	0	.	-3	-2	-17	0
COc1cc2c3c(c1OC)-c1cc4c(cc1CC3(C#N)N(C(=O)c1ccccc1)CC2)OCO4 (stereo not given)	43*	-40	3	.	.	27
O=c1[nH]c(CN2CCOCC2)nc2ccccc12	43*	-1	-5	5	10	-3
CCCC(=O)Nc1cc(C(=O)O)ccc1Sc1ccc(C)cc1	43*	-3	0	.	.	-1
CCC(=O)Nc1cc(C(=O)O)ccc1Sc1ccc(C)cc1	0	-5	-6	.	.	-5
O=C([C@@H]1N[C@@H]2c3ccc(C4=CCCCC4)c(=O)n3C[C@@H]2[C@H]1CO)N1CCc2ccccc2C1	.	.	.	0	.	.
COc1cnc(-c2cccc(C(F)(F)F)c2)nc1OC	43*	5	-2	.	.	4
COc1cc(-c2nc(-c3cccc(C(F)(F)F)c3)no2)cc(OC)c1OC	.	6	.	-6	-16	1
Cc1[nH]c2ccccc2c1N=Nc1ccccc1F	44*	11	1	.	.	30
COc1cccc(S(=O)(=O)N2CCCCN3[C@H](CO)[C@H](c4ccc(-c5ccccc5)cc4)[C@@H]3C2)c1	0	.	1	-1	13	25
Cc1ccc(SCC(=O)Nc2nccs2)cc1	43*	0	?	1	1	-1
COc1ccc(NC(=O)N(C)C[C@@H]2OCCCC[C@@H](C)Oc3ccc(NC(=O)c4ccncc4)cc3C(=O)N([C@H](C)CO)C[C@H]2C)cc1	0	.	.	2	1	7
Cc1ccc(C(=O)Nc2nnc(CC(=O)N/N=C/c3ccc(O)c(O)c3)s2)cc1	0	-5	0	4	-17	-29
Cc1ccc(C(=O)Nc2nnc(CC(=O)N/N=C/c3ccncc3)s2)cc1	44*	0	7	.	.	-4
COC(=O)C[C@@H]1C[C@@H]2c3cc(NC(=O)CN(C)C)ccc3O[C@@H]2[C@@H](CO)O1	0	.	-1	-9	.	-2
O=C(O)COc1ccccc1/C=C1\SC(=Nc2ccc(F)cc2)N(c2ccc(F)cc2)C1=O	0	-3	-9	-2	-17	4
O=C(O)COc1ccccc1/C=C1\SC(=S)N(NC(=O)c2ccccc2O)C1=O	.	-10	-1	0	-10	51*
O=C(O)COc1ccccc1/C=C1\SC(=S)N(/N=C/c2ccccc2O)C1=O	.	5	.	-5	-17	70*
O=C(NN1C(=O)/C(=C/c2cccc(O)c2)SC1=S)c1ccccc1O	0	3	0	-3	-20	25
C[C@H](NC(=O)[C@H]1[C@H](CO)[C@H]2Cn3c(ccc(C4=CCCCC4)c3=O)[C@@H]1N2)c1ccccc1	0	.	-7	-1	.	2
CCOC(=O)c1cc(N2CCCCC2)nc2ccccc12	0	-1	-2	-1	-6	-126
O=C(O)c1cc(N2CCCCC2)nc2ccccc12	43*	-4	5	0	-2	.
C[C@H]1CN([C@@H](C)CO)S(=O)(=O)c2ccc(C#CC3CC3)cc2O[C@H]1CN(C)C(=O)c1ccccn1	0	.	9	2	-5	-1
O=C(Nc1ccc(F)cc1)N[C@H]1C=C[C@H](CC(=O)N2CCCCC2)O[C@@H]1CO	0	.	-2	6	9	.

Brought forward from above: 2 entries, then new ones.
SMILES	FGF22 binding	PDI inh	ERp5 inh	PglD DTNB	Yeast UUG start	ARNT-TACC3 inh
C[C@H]1CN([C@@H](C)CO)S(=O)(=O)c2ccc(C#CC3CC3)cc2O[C@H]1CN(C)C(=O)c1ccccn1	0	.	9	2	-5	-1
O=C(Nc1ccc(F)cc1)N[C@H]1C=C[C@H](CC(=O)N2CCCCC2)O[C@@H]1CO	0	.	-2	6	9	.
CN(C)/C=C1\C(=O)NN=C1c1ccccc1	0	-3	3	-1	0	28*
CN(C)C=C1C(=O)c2ccccc2C1=O	.	-7	.	-1	32	3
COc1ccc2c3c(n(C)c2c1)[C@H](CO)N(Cc1ccncc1)CC31CN(C(=O)Cc2ccncc2)C1	0	.	-10	.	.	.
C[C@@H]1CN([C@@H](C)CO)C(=O)c2cc(-c3cncnc3)cnc2O[C@@H]1CN(C)Cc1ccccc1	-1	.	0	.	.	.
Cc1cccc(C)c1N1C(=O)CC(Sc2ccccc2N)C1=O (stereo not given)	44*	-5	10	14	-21	.
CCCC#Cc1ccc([C@H]2[C@@H](CO)N3CCCCN(CC4CC4)C[C@H]23)cc1	0	.	3	4	-3	0
COCC(=O)N(C)C[C@@H]1Oc2ncc(Br)cc2C(=O)N([C@H](C)CO)C[C@H]1C	0	.	3	1	-3	4
COc1ccc(-n2c(NN)nc3sc4c(c3c2=O)CCCC4)cc1	43*	-5	3	-4	-4	2
Cc1c(-n2cc(C(=O)c3ccccc3O)cc(C#N)c2=O)c(=O)n(-c2ccccc2)n1C	.	89*	.	-4	-9	-5
N#Cc1cc(C(=O)c2ccccc2O)cn(-c2ccc(Cl)cc2)c1=O	0	0	4	-1	-17	.
CN=c1sc(C(=O)Nc2cccc(Cl)c2)cc(=O)n1C	.	-2	.	-2	-16	-7
Cn1ccs/c1=N\C(=O)Nc1cccc(Cl)c1	43*	1	4	.	.	.
Cc1noc(C)c1NC(=O)Nc1ccc2c(c1)C(=O)N([C@H](C)CO)C[C@H](C)[C@H](CN(C)C(=O)Nc1cccc3ccccc13)O2	0	.	1	-5	-34	3
CCc1ccc(C(=O)NNC(=S)Nc2ccc(S(N)(=O)=O)cc2)s1	1.8*	-2	-1	.	.	6
COc1ccc(NC(=S)Nc2cc(C(F)(F)F)ccc2F)cc1	44*	1	2	.	.	-2
COc1ccc(NC(=S)NNC(=S)Nc2cccc(C(F)(F)F)c2)cc1	0	20	1	-2	-14	-2
COc1ccc(NC(=O)Nc2ccc3c(c2)C(=O)N([C@@H](C)CO)C[C@H](C)[C@H](CN(C)C(=O)Nc2ccc(OC)cc2)O3)cc1	0	.	8	0	25	19
CC1=NN(c2ccccc2)C(=O)/C1=C/N(C)C	0	13	-2	-4	-14	16
CC1=NN(c2nc3ccccc3[nH]2)C(=O)/C1=C/N(C)C	.	0	.	.	.	68*

Looked up above:
Entry for `CN(C)C=C1C(=O)c2ccccc2C1=O` under PglD DTNB: -1
Entry for `COc1ccc(-n2c(NN)nc3sc4c(c3c2=O)CCCC4)cc1` under Yeast UUG start: -4
Entry for `CCc1ccc(C(=O)NNC(=S)Nc2ccc(S(N)(=O)=O)cc2)s1` under ARNT-TACC3 inh: 6
Entry for `COc1ccc2c3c(n(C)c2c1)[C@H](CO)N(Cc1ccncc1)CC31CN(C(=O)Cc2ccncc2)C1` under ERp5 inh: -10
Entry for `CN=c1sc(C(=O)Nc2cccc(Cl)c2)cc(=O)n1C` under Yeast UUG start: -16
